Reference: article PMC11864979, “First-in-class ultralong-target-residence-time p38α inhibitors as a mitosis-targeted therapy for colorectal cancer” (Nature Cancer, 2025)

What was measured:
KAP liver metastasis = assay: survival of wild-type mice with KAP liver metastasis; assay type: in vivo, mouse; conditions: 20 mg kg^−1 daily, start 5 weeks after organoid inoculation
KAP^2D cells = assay: annexin V apoptosis analysis in KAP^2D cells; assay type: cell-based, mouse; conditions: 3 d of treatment; Fig. 5a
Experimental: For DNA content analysis, cells were fixed with ethanol, washed and resuspended in PBS containing 50 µg ml^−1 propidium iodide (Invitrogen) and 250 µg ml^−1 RNase A (Qiagen). Apoptosis was analyzed with the FITC annexin V apoptosis detection kit (Biolegend). Both measurements were performed with FACS Canto II (BD) and physical parameters were used to exclude cell debris and cell doublets.

O=C1c2ccc(Nc3ccc(F)cc3F)cc2CCc2ccc(OC[C@H](O)CO)cc21 [SKL, skepinone-L]
survival / therapeutic efficacy in KAP liver metastasis (in words) (KAP liver metastasis): did not exert therapeutic efficacy | Annexin V+ cells (KAP^2D cells): 11.70%
